# Laboratory results: ChEMBL document CHEMBL5576122, “Discovery of Novel Azaphenothiazine Derivatives to Suppress Endometrial Cancer by Targeting GRP75 to Impair Its Interaction with IP3R and Mitochondrial Ca2+ Homeostasis” (J Med Chem, 2024)
# What was measured:
# [1] = Toxicity in BALB/c nude mouse xenografted with human KLE cells assessed as change in urea level at 1 to 2 mg/kg, po administered every other day for 21 days; type: organism-based; details: in vivo, 504 h, dose 1-2 mg/kg, time 21 day
# [2] = Toxicity in BALB/c nude mouse xenografted with human KLE cells assessed as change in AST level at 1 to 2 mg/kg, po administered every other day for 21 days; type: organism-based; details: in vivo, 504 h, dose 1-2 mg/kg, time 21 day
# [3] = Acute toxicity in ICR mouse assessed as change in body weight at 100 mg/kg, ip measured daily for 14 days; type: organism-based; details: in vivo, 336 h, time 14 day
# [4] = Extrapyramidal side effect in mouse assessed as average fall off latency time at 50 mg/kg, ip by rotarod test; type: toxicity, organism-based; details: in vivo
# [5] = Toxicity in BALB/c nude mouse xenografted with human KLE cells assessed as spleen damage at 1 to 2 mg/kg, po administered every other day for 21 days bty H and E staining based assay; type: organism-based; details: in vivo, 504 h, dose 1-2 mg/kg, time 21 day
# [6] = Acute toxicity in ICR mouse assessed as change in lungs at 100 mg/kg, ip measured after 14 days; type: organism-based; details: in vivo, 336 h, time 14 day
# [7] = Toxicity in BALB/c nude mouse xenografted with human KLE cells assessed as heart damage at 1 to 2 mg/kg, po administered every other day for 21 days bty H and E staining based assay; type: organism-based; details: in vivo, 504 h, dose 1-2 mg/kg, time 21 day
# [8] = Toxicity in BALB/c nude mouse xenografted with human KLE cells assessed as reduction in body weight at 1 to 2 mg/kg, po administered every other day for 21 days; type: organism-based; details: in vivo, 504 h, dose 1-2 mg/kg, time 21 day
# [9] = Toxicity in BALB/c nude mouse xenografted with human KLE cells assessed as liver damage at 1 to 2 mg/kg, po administered every other day for 21 days bty H and E staining based assay; type: organism-based; details: in vivo, 504 h, dose 1-2 mg/kg, time 21 day
# [10] = Acute toxicity in ICR mouse assessed as change in heart at 100 mg/kg, ip measured after 14 days; type: organism-based; details: in vivo, 336 h, time 14 day
# [11] = Toxicity in BALB/c nude mouse xenografted with human KLE cells assessed as change in creatinine level at 1 to 2 mg/kg, po administered every other day for 21 days; type: organism-based; details: in vivo, 504 h, dose 1-2 mg/kg, time 21 day
# [12] = Toxicity in BALB/c nude mouse xenografted with human KLE cells assessed as kidney damage at 1 to 2 mg/kg, po administered every other day for 21 days bty H and E staining based assay; type: organism-based; details: in vivo, 504 h, dose 1-2 mg/kg, time 21 day
# [13] = Extrapyramidal side effect in mouse assessed as average fall off latency time at 100 mg/kg, ip by rotarod test; type: toxicity, organism-based; details: in vivo
# [14] = Acute toxicity in ICR mouse assessed as change in liver at 100 mg/kg, ip measured after 14 days; type: organism-based; details: in vivo, 336 h, time 14 day
# [15] = Acute toxicity in ICR mouse assessed as change in kidney at 100 mg/kg, ip measured after 14 days; type: organism-based; details: in vivo, 336 h, time 14 day
# [16] = Toxicity in BALB/c nude mouse xenografted with human KLE cells assessed as change in creatinine kinase level at 1 to 2 mg/kg, po administered every other day for 21 days; type: organism-based; details: in vivo, 504 h, dose 1-2 mg/kg, time 21 day
# [17] = Toxicity in BALB/c nude mouse xenografted with human KLE cells assessed as change in ALT level at 1 to 2 mg/kg, po administered every other day for 21 days; type: organism-based; details: in vivo, 504 h, dose 1-2 mg/kg, time 21 day
# [18] = Acute toxicity in ICR mouse assessed as change in spleen at 100 mg/kg, ip measured after 14 days; type: organism-based; details: in vivo, 336 h, time 14 day
# [19] = Extrapyramidal side effect in mouse assessed as effect on motor ability at 50 to 100 mg/kg, ip by rotarod test; type: toxicity, organism-based; details: in vivo, dose 50-100 mg/kg
smiles,measurement,setting,value
COc1ccc2c(c1)N(CCCCCN1CCC3(CCN(C)CC3)CC1)c1ncccc1S2,Activity,[1],Non-Toxic
same,Activity,[2],Non-Toxic
same,Activity,[3],Non-Toxic
same,Time,[4],255 s
same,Activity,[5],Non-Toxic
same,Activity,[6],Non-Toxic
same,Activity,[7],Non-Toxic
same,Activity,[8],Non-Toxic
same,Activity,[9],Non-Toxic
same,Activity,[10],Non-Toxic
same,Activity,[11],Non-Toxic
same,Activity,[12],Non-Toxic
same,Time,[13],243 s
same,Activity,[14],Non-Toxic
same,Activity,[15],Non-Toxic
same,Activity,[16],Non-Toxic
same,Activity,[17],Non-Toxic
same,Activity,[18],Non-Toxic
same,Activity,[19],Non-Toxic
